{
  "source": "patent US9072800B2",
  "about": "“Hand sanitizer” (TRISTEL PLC, priority 2009, dated 2015)",
  "conditions": "extended periods",
  "data": [
    {"substance": "sodium chlorite", "values": [
      {"measurement": "stability in alcoholic medium", "value": "stable"}
    ]}
  ]
}
